Columns and labels:
[1] = system: IL-1β and TNFα mRNAs in mouse brain; assay: LPS in vivo model: proinflammatory cytokine mRNA in mouse brain (qRT-PCR); conditions: 20 mg·kg^−1 i.p. daily 4 days, 4 h and 24 h after LPS 0.5 mg·kg^−1
Protocol: (§1) FIG. 2. Compound 1 decreases the inflammatory process 4 and 24 hours after LPS administration in vivo. Compound 1 (20 mg·kg^−1) daily was injected i.p. four days before the i.p. LPS (0.5 mg·kg^−1) administration.
(§2) The LPS in vivo model was induced, sickness behaviour evaluated (locomotion test and novel object recognition test) and cytokines measured by qPCR as described by [Fernindez-Mendivil, Cristina et al. “Protective role of microglial HO-1 blockade in aging: Implication of iron metabolism.” Redox biology vol. 38 (2021): 101789. doi:10.1016/j.redox.2020.101789]. The panel of mouse cytokines, chemokines, and growth factors were measured by Luminex xMAP technology for multiplexed quantification at Evetechnologies (https://www.evetechnologies.com/)
(§3) Example 2.3.1. Treatment with Compound 1 reduces LPS-induced cytokine expression and release in mouse brain. Mice were treated i.p. with a daily dose of 20 mg·kg^−1 of Compound 1 for 4 consecutive days. On the last day, LPS (0.5 mg·kg^−1) was injected i.p. one h after the compound. Thereafter, behavioural, and biochemical outcomes were analysed at different time points.

LPS treated mice = assay: LPS-induced sickness behaviour: locomotion test; conditions: 20 mg·kg^−1 i.p.; 4 and 8 h after LPS
Protocol: FIG. 5. Sub-chronical Compound 1 administration improves behavioural parameters in LPS treated mice. Compound 1 (20 mg·kg^−1) was injected once a day via i.p. four days before the i.p. LPS (0.5 mg·kg^−1) administration, thereafter behavioural tests were conducted. (A) Mice weight change (T0 and T24: saline n=17, LPS n=17, LPS+Compound 1 n=19, T4 and T8 saline n=8, LPS n=7, LPS+Compound 1 n=8). (B) Locomotion activity measured by line crossings of an imaginary grid. (C) Scheme of NOR test. (D) Discrimination index (DI) of the mice studied: saline (n=16), LPS (n=9) and LPS+Compound 1 (n=13).
as §2
Example 2.3.1. Treatment with Compound 1 reduces LPS-induced cytokine expression and release in mouse brain. […] Thereafter, behavioural, and biochemical outcomes were analysed at different time points.

[2] = system: adult mice with hTauP301L tauopathy; assay: hTauP301L FTD model, adult mice: T-maze; conditions: 35 days
Protocol: FIG. 9. Compound 1 prevents cognitive decline in spatial memory behavioural paradigms in adult mice with hTauP301L tauopathy after 35 days oral administration (20 mg/kg or 50 mg/kg/day). (A) Representation of T-maze alternation test and (B) Object Location test (OLT). (C) Average percentage of success in seven independent attempts (n=14-19). (D) Discrimination index in the OLT assay (AAV-eGFP, n=15; AAV-hTau, n=10; AAV-hTau+Compound 1 at 20 mg/kg, n=5; AAV-hTau+Compound 1 at 50 mg/kg, n=8).
In vivo hTau301L model was induced by stereotaxic injection of AAV-hTauP301L (AAV-hTau) particles as described in [Luengo, Enrique et al. “Implication of type 4 NADPH oxidase (NOX4) in tauopathy.” Redox biology vol. 49 (2022): 102210. doi:10.1016/j.redox.2021.102210]. Control animals were injected with AAV-GFP. Evaluation of hyperphosphorylated tau in sarkosyl soluble and insoluble fractions; microgliosis; AT8 and AT180 by immunofluorescence; and cognitive test were performed as described previously [Luengo, Enrique et al. “Implication of type 4 NADPH oxidase (NOX4) in tauopathy.” Redox biology vol. […]
Example 2.5. […] After 35 days treatment, hyperphosphorylated tau levels were evaluated by immunofluorescence and by WB in soluble and insoluble in sarkosyl fractions. […]
Spatial memory was measured using the T-maze (FIG. 9A) and the Object localization tests (OLT; FIG. 9B).

[3] = system: cytokines, chemokines in mouse brain; assay: LPS in vivo model: multiplex assay of cytokines and chemokines in mouse brain; conditions: 20 mg·kg^−1 i.p.
Protocol: as §1
FIG. 3. Compound 1 ameliorates the resolution of the inflammatory process triggered by LPS. Multiplex assay of cytokines 4 h (A) and 24 h (B) after the proinflammatory stimuli (n=5).
as §2, §3

## COc1ccc2c(c1)CC(c1c[nH]c3ccc(OC)cc13)N2 (stereo not shown)
[1]
  IL-1β mRNA: reduced
  TNFα mRNA: reduced
LPS treated mice
  Locomotion (line crossings of an imaginary grid): improved
[2]; oral 20 mg/kg or 50 mg/kg
  T-maze percentage of success: dose-dependent improvement
[2]; oral 50 mg/kg
  T-maze percentage of success: total recovery was achieved
[3]; 4 h and 24 h after LPS, most of them
  Additional cytokines (FIG. 3): decreased with compound treatment
[3]; brain, 4 and 24 h after LPS
  IP10: decreased significantly
  KC: decreased significantly
  MIP2: decreased significantly
  RANTES: decreased significantly
[3]; brain, 4 h after LPS
  MCP-1: decreased significantly
[3]; brain, 4 h post LPS
  IL-6: marked reduction
  IL-7: marked reduction
[3]; brain, 24 h post LPS
  IL-6: restored to basal conditions
  IL-7: restored to basal conditions
[3]; brain, LPS
  granulocyte-colony stimulating factor (G-CSF): significantly reduced

From US20260382572A1, “TREATMENT OF FRONTOTEMPORAL DEMENTIA OR FRONTOTEMPORAL LOBAR DEMENTIA” (published 2026)
